The source of these data is paper PMC7140114 (Cancers, 2020).

Data set [1] concerns MDA-MB-468 cells. The experiment in a line: In vitro cytotoxicity (CellTiter-Glo, 7 days), MDA-MB-468. The note with it: MDA-MB-468, HER2−. Format: cell-based, human. The procedure: Human HER2-positive cell lines (BT-474, HCC1954, and NCI-N87) and HER2-negative cell lines (MCF-7 and MDA-MB-468) were purchased from the ATCC. Tumor cells were cultured in Roswell Park Memorial Institute (RPMI)-1640 medium (Cellgro, Manassas, VA, USA) supplemented with 10% fetal bovine serum (Invitrogen, Carlsbad, CA, USA) and GlutaMAX (Invitrogen, Carlsbad, CA, USA). Cells (3.3 × 10^4 cells/well) were added to each well of 384-well plates and incubated at 37 °C overnight, after which 10 μL of compound aliquots were added to the assay plate. […] Then, the plates were removed from the incubator and equilibrated at room temperature for 10 min. The Cell Titer Glo® (CTG, Promega, Madison, WI, USA) reagents were incubated at 37 °C before the experiment. The buffer was equilibrated to room temperature and used to dissolve the substrate. Then, 40 μL of CTG reagent was added to each well for detection (at 1:1 ratio to the culture medium).

Data set [2] has as its system BT-474 cells. The experiment in a line: In vitro cytotoxicity (CellTiter-Glo, 7 days), BT-474. Format: cell-based, human. The note with it: BT-474, HER2+++, 7 days. On the procedure:
(§1) Human HER2-positive cell lines (BT-474, HCC1954, and NCI-N87) and HER2-negative cell lines (MCF-7 and MDA-MB-468) were purchased from the ATCC. Tumor cells were cultured in Roswell Park Memorial Institute (RPMI)-1640 medium (Cellgro, Manassas, VA, USA) supplemented with 10% fetal bovine serum (Invitrogen, Carlsbad, CA, USA) and GlutaMAX (Invitrogen, Carlsbad, CA, USA). Cells (3.3 × 10^4 cells/well) were added to each well of 384-well plates and incubated at 37 °C overnight, after which 10 μL of compound aliquots were added to the assay plate. The plate was incubated for 7 days at 37 °C, 5% CO2, and 95% humidity. Then, the plates were removed from the incubator and equilibrated at room temperature for 10 min. The Cell Titer Glo® (CTG, Promega, Madison, WI, USA) reagents were incubated at 37 °C before the experiment. The buffer was equilibrated to room temperature and used to dissolve the substrate. Then, 40 μL of CTG reagent was added to each well for detection (at 1:1 ratio to the culture medium). Luminescence was detected using an EnSpire plate reader, and Prism5 for Windows (GraphPad software, Inc., La Jolla, CA, USA) was used for data analysis, including the 50% inhibition concentration (IC50) calculations.
For orientation: ATP-based viability assays read luminescence as a measure of living cells.

In data set [3] the test system is HCC1954 cells. The experiment in a line: In vitro cytotoxicity (CellTiter-Glo, 7 days), HCC1954. The data set is classed as cell-based, human. Conditions: HCC1954, HER2+++. On the procedure:
as §1

Data set [4] relates to MCF-7 cells. The experiment in a line: In vitro cytotoxicity (CellTiter-Glo, 7 days), MCF-7. Format: cell-based, human. Conditions: MCF-7, HER2−. On the procedure: as §1
The test system of data set [5] is NCI-N87 xenograft. The experiment in a line: NCI-N87 gastric cancer xenograft in BALB/c nude mice. The data set is classed as in vivo. Conditions: therapeutic doses. On the procedure: Female BALB/c nude mice (6–8 weeks old; approximately 22 g) were purchased from Beijing Ankaiyibo Biological Technology Co. Ltd. (Beijing, China), and were acclimated for 1 week before the experiment. The mice were inoculated subcutaneously with approximately 5 × 10^6 NCI-N87 gastric cancer cells in 0.2 mL of serum-free RPMI-1640 medium for tumor development. When the tumors reached a volume of ~120 mm^3, the mice were randomly divided into treatment and vehicle control groups (n = 6/group). […] The tumor volumes were monitored 2–3 times per week during the treatment period, and were calculated using the formula: TV = a × b^2/2, where “a” and “b” are the long and short diameters of each tumor, respectively. All animal studies were performed according to the guidelines approved by the Institutional Animal Care and Use Committee (IACUC) of Pharmaron Co., Ltd. following the guidance of the Association for Assessment and Accreditation of Laboratory Animal Care (AAALAC) under license number ON-CELL-XEM-06012017 on 1 June 2017.

Data set [6] relates to NCI-N87 xenograft. The experiment in a line: In vivo fluorescence imaging (DyLight 680 label) in NCI-N87 xenograft. Further details: species or system mice. The note with it: 10 mg/kg i.v., DyLight 680-labeled. The procedure:
We further quantified the total fluorescence value and maximum fluorescence intensity of the tumors in the test animals. […] In addition, one mouse in the ADC dose group was randomly selected for tissue dissection and imaging in vitro after 32 h of administration.
The in vivo fluorescence imaging experiments were investigated using an NCI-N87 Balb/c-nude mice xenograft model. […] When the tumor size reached approximately ~400 mm^3, mice in the two groups were injected via the tail veins with the dose of 10 mg/kg, while an equal volume of vehicle was injected as a control. The mice were imaged under anesthesia at the indicated time points (6, 24, 48, 72, 120, 192, 288, and 360 h) using the IVIS® SpectrumTM imaging system (PE, Waltham, MA, USA), and the data were analyzed using Living Image® software (version number: 4.3.1, Waltham, MA, USA).

Data set [7] concerns BT-474 cells. The experiment in a line: Confocal trafficking / internalization assay. The data set is classed as cell-based, human. Conditions: 37 °C for 16 h. The procedure: The Zenon™ pHrodo™ iFL red human IgG labeling reagent (Z25612), NucBlue™ Live ReadyProbes™ reagent (R37605), and CellLight™ Lysosomes-GFP, BacMam 2.0 (C10507) were purchased from Invitrogen (Carlsbad, CA, USA). BT-474 cells were seeded at a density of 2 × 10^4 cells/well in 24-well plates containing glass covers and lips and incubated at 37 °C overnight. […] After washing the wells with ice-cold phosphate buffered solution (PBS), the cells were exposed on the chamber coverslip by a Cytospin, fixed with 4% paraformaldehyde for 10 min, and permeabilized with 0.2% Triton X-100 for 5 min. […] The lysosomes were labeled with a lysosomal-associated membrane protein 1 (LAMP-1) antibody followed by an Alexa Fluor 568-labeled goat anti-mouse IgG (H + L). The cell nuclei were stained with 4′,6-diamidino-2-phenylindole (DAPI). Fluorescence images were obtained using a Nikon A1 confocal microscope (Nikon, Corp., Tokyo, Japan).

On to `CCC(C)C(C(CC(=O)N1CCCC1C(OC)C(C)C(=O)NC(C)C(O)c1ccccc1)OC)N(C)C(=O)C(NC(=O)C(NC)C(C)C)C(C)C` (centres unmarked) [MMAE, Monomethyl auristatin E, reference compound], for which, in data set [1], the “Max. Inhibition” value turned out to be 87.37%.
On to mil40, for which the IC50 is 0.00078 µM in data set [2], 1.75 µM in data set [3], more than 3.44 µM in data set [4] and 1.39 µM in data set [1]. Besides, the “Max. Inhibition” value in data set [2] turned out to be 65.45%; in data set [3] it was 70.36%; in data set [4] it was 49.43%. Further, the “Body weight during treatment and observation period” value in data set [5] was “no significant weight loss”. For the same compound, the “Time for which image of tumor localization was maintained” value in data set [6] was “more than 12 days”. Besides, in data set [7], the “Internalization and lysosomal colocalization” value is “internalized into the tumor cells and colocalized with the lysosomal markers”.

Usually IC50 stands for the midpoint of a concentration-inhibition curve. A higher IC50 goes with lower potency.
